Earlier results, collected in US7884189B2, “Carboxyltransferase domain of acetyl-CoA carboxylase” (The Trustees of Columbia University in the City of new York, priority 2003, dated 2011).

Molecular target: mammalian ACC1 (Rattus norvegicus, UniProt P11497)
Conditions: cited from earlier work

Question: With `O=C(c1c2ccccc2cc2ccccc12)N1CCC(N2CCC[C@@H](C(=O)N3CCOCC3)C2)CC1` [CP-640186] as the molecule, how does the IC50 read?
Answer: Its IC50 is roughly 55 nM.
